Laboratory results: patent US20240254119A1 (THIRD HARMONIC BIO, INC., priority 2022, published 2024)

The chains behind the UniProt entries cited, without tags or fusion partners. Residues count along the entry.
UniProt P07333, 20-972 limits assumed: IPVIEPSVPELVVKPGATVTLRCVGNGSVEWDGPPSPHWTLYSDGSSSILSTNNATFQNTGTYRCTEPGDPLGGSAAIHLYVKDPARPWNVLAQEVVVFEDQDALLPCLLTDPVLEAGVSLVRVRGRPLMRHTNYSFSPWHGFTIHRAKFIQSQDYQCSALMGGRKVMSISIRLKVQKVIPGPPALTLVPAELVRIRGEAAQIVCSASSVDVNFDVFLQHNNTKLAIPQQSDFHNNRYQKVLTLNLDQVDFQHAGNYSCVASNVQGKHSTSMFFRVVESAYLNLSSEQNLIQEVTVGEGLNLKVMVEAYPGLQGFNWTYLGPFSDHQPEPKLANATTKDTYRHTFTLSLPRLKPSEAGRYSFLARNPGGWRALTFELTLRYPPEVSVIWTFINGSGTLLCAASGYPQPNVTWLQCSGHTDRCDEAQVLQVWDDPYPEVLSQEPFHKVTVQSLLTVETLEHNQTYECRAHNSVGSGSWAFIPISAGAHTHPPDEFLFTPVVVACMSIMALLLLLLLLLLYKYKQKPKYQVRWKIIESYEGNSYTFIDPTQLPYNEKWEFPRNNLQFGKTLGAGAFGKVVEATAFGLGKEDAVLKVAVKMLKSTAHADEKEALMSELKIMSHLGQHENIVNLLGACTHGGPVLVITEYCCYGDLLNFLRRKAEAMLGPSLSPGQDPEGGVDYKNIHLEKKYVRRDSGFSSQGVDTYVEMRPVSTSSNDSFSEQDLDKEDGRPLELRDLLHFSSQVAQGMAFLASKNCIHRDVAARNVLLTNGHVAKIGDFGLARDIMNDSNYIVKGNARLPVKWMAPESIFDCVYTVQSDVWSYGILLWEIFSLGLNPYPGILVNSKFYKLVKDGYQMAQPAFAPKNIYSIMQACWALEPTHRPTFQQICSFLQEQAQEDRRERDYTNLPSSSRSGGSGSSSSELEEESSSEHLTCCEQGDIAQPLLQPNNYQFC
UniProt P10721, 26-976 limits assumed: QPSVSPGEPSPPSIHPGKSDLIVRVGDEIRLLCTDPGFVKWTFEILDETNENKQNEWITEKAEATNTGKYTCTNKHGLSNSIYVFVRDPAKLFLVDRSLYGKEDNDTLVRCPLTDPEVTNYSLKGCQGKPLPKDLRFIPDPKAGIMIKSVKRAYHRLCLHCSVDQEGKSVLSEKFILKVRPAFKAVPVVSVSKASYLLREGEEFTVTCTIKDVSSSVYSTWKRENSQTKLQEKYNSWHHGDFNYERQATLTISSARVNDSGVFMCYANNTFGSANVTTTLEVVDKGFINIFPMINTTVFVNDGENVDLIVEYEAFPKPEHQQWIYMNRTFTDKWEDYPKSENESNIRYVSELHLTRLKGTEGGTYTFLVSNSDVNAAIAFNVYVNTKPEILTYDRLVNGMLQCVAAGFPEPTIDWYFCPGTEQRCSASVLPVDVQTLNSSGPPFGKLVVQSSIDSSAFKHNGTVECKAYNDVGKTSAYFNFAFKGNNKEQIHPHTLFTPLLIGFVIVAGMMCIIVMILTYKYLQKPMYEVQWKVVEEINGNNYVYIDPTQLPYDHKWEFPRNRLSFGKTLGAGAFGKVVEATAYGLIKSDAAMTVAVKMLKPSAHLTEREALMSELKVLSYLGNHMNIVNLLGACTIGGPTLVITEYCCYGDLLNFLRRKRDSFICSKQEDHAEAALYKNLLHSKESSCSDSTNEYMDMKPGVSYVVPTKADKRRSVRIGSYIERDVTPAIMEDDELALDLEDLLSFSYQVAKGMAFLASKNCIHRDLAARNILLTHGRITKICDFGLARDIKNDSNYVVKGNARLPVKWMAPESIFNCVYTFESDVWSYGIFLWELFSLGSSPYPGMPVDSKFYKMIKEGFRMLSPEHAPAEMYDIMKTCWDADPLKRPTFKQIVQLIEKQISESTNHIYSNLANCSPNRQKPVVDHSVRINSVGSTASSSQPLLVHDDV
UniProt P16234, 24-1089 limits assumed: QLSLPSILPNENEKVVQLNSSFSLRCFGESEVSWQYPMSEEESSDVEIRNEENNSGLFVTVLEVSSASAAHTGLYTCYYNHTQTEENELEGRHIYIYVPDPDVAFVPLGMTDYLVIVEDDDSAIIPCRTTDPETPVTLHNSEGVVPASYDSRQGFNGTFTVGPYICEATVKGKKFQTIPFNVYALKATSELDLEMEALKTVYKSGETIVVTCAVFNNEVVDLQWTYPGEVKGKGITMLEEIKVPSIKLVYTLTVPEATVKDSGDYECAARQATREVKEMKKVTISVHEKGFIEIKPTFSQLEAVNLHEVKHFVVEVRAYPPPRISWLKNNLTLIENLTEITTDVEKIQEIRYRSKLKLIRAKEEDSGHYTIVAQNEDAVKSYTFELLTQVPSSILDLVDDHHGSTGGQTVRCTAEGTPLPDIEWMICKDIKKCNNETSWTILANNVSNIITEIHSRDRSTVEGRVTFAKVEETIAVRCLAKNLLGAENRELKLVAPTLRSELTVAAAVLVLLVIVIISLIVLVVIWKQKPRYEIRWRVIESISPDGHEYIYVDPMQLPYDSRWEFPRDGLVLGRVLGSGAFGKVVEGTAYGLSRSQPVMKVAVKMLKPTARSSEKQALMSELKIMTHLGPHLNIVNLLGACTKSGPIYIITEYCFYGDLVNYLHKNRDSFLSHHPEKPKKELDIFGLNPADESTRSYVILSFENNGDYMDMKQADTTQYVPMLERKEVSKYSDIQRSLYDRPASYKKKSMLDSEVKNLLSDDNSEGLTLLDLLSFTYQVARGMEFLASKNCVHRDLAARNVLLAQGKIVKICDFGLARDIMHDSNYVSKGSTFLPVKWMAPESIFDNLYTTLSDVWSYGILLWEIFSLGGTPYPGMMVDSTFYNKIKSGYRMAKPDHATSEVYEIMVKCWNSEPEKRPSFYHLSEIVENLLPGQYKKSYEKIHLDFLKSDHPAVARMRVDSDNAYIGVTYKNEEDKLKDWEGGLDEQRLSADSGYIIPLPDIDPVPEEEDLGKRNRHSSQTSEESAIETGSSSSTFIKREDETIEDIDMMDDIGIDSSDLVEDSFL
UniProt Q9UNQ0, whole entry: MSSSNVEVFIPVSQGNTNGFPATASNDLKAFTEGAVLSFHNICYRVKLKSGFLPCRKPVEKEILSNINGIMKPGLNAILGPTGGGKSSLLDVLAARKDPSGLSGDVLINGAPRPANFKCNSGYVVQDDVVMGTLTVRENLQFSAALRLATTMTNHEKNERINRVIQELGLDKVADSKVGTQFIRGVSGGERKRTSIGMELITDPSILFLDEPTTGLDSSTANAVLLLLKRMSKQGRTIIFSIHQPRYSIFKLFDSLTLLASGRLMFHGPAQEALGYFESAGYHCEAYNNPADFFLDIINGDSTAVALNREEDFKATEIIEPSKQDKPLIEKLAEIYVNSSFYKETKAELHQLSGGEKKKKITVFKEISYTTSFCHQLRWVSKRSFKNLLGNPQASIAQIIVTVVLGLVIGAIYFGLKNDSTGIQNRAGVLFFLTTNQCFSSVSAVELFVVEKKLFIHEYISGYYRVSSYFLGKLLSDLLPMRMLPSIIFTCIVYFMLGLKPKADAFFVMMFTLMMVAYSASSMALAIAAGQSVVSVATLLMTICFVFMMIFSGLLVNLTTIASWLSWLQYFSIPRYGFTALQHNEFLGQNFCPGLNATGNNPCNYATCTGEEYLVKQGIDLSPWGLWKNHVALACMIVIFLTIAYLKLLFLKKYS

Key:
[1] = test system: KIT phosphorylation in M-07e cells; assay: Cell-based KIT phosphorylation in M-07e cells by pKIT ELISA; settings: read-out: M-07e pKIT IC50, SCF stimulation
[2] = target: T1, CSF-1R (Homo sapiens, UniProt P07333); assay: Caliper biochemical assay, CSF-1R; settings: read-out: CSF-1R Biochemical IC50, Table 6
[3] = target: T2, wtKIT (Homo sapiens, UniProt P10721); assay: Caliper biochemical assay, wtKIT; settings: read-out: KIT Biochemical IC50 avg, Table 6
[4] = target: T3, PDGFRα (Homo sapiens, UniProt P16234); assay: Caliper biochemical assay, PDGFRα; settings: read-out: PDGFRα Biochemical Avg IC50, Table 6
[5] = target: BCRP (BCRP-MDCKII monolayer) (Homo sapiens, UniProt Q9UNQ0); assay: MDCKII-BCRP bidirectional transport assay; settings: for MDCK-BCRP: Papp A-B: apical to basolateral
[6] = target: T2, wtKIT; assay: HTRF biochemical assay, wtKIT (phosphorylation of a peptide substrate); settings: read-out: KIT Biochemical IC50 avg, Table 4
[7] = target: T3, PDGFRα; assay: HTRF biochemical assay, PDGFRα; settings: read-out: PDFGRα Biochemical IC50 avg, Table 4
[8] = target: T1, CSF-1R; assay: HTRF biochemical assay, CSF-1R; settings: read-out: CSF-1R Biochemical IC50 avg, Table 4
[9] = Kinetic solubility assay; settings: 50 mM PB (pH 7.4), shaken 24 hours at RT
[10] = Three time point assay for plasma, brain and testes distribution after oral dosing; settings: rat, time point 2 h

MDCK-BCRP: Efflux Ratio [5]	MDCK-BCRP: Papp A-B [5]	IC50 [6] [nM]	IC50 [7] [nM]	IC50 [8] [nM]	Brain concentration [10] [ng/g]	Kp testes/plasma [10]	Plasma concentration [10] [ng/mL]	Testes concentration [10] [ng/g]	Compound	IC50 [1] [nM]	IC50 [2] [nM]	IC50 [3] [nM]	IC50 [4] [nM]	Solubility (μM) [9]
		< 50	500 to 5000	< 50					COc1ccn2c(C(=O)Nc3cc(-c4noc([C@H]5C[C@@H](OCCF)C5)n4)ccc3C)cnc2c1					
71.8	0.000847 ×10⁻⁶ cm/s								Cc1ccc(-c2noc([C@H]3C[C@@H]3F)n2)cc1NC(=O)c1cnc2cc(Nc3ccc(N4CCCCC4)cc3)ccn12			< 50		**** (a solubility less than or equal to 2 μM)
		< 50	50 to 500	< 50					Cc1ccc(-c2noc([C@@H]3CCCN3C)n2)cc1NC(=O)c1cnn2cc(-c3ccn(C)n3)ccc12					
		< 50	5000 to 30000	50 to 500					Cc1ccc(-c2noc([C@H]3C[C@@H](OCCF)C3)n2)cc1NC(=O)c1cnc2cc(Cl)ccn12					
		< 50	5000 to 30000	50 to 500					COCc1ccn2c(C(=O)Nc3cc(-c4noc([C@@H]5CCN5)n4)ccc3C)cnc2c1					
25.7	1.17 10^−6 cm/s	50 to 500			0	0.11	746	62.8	Cc1ccc(-c2noc(CS(=O)(=O)N(C)C)n2)cc1NC(=O)c1cnc2ccccn12		50 to 500	< 50	50 to 500	*** (a solubility greater than 2 μM and less than or equal to 10 μM)
		< 50	5000 to 30000	50 to 500					CC[C@H](O)Cc1nc(-c2ccc(C)c(NC(=O)c3cnc4cc(COC)ccn34)c2)no1					
									COC(=O)Nc1ccc2ncc(C(=O)Nc3cc(-c4noc([C@H]5C[C@@H]5F)n4)ccc3C)n2c1	< 50	< 50	< 50	50 to 500	*** (a solubility greater than 2 μM and less than or equal to 10 μM)
		< 50	50 to 500	< 50					CC[C@@H](O)Cc1nc(-c2ccc(C)c(NC(=O)c3cnc4cc(-c5cncn5C)ccn34)c2)no1					
									Cc1ccc(-c2noc(C3CC(O)C3)n2)cc1NC(=O)c1cnc2ccccn12 (single isomer, unassigned)	< 50	500 to 5000		500 to 5000	** (a solubility greater than 10 μM and less than or equal to 50 μM)
									O=C(Nc1cccc(-c2noc(CN3CC(F)(F)C3)n2)c1F)c1cnc2ccccn12	< 50	5000 to 30000	< 50	5000 to 30000	**** (a solubility less than or equal to 2 μM)
									Cc1ccc(-c2noc(CC3COC3)n2)cc1NC(=O)c1cnc2ccccn12	< 50	50 to 500	< 50	500 to 5000	** (a solubility greater than 10 μM and less than or equal to 50 μM)
1.31	0.28 10^−6 cm/s								Cc1ccc(-c2noc(C3CC(F)(c4cccc(F)c4)C3)n2)cc1NC(=O)c1cnc2ccccn12 (stereo not drawn)			< 50		**** (a solubility less than or equal to 2 μM)
		50 to 500	5000 to 30000	500 to 5000					Cc1ccc(-c2noc([C@H]3CCN3C)n2)cc1NC(=O)c1cnc2cc(C(C)(F)F)ccn12					
1.03	14.7 10^−6 cm/s								CO[C@@H]1C[C@@H](c2nc(-c3ccc(C)c(NC(=O)c4cnc5ccccn45)c3)no2)C12CCC2 (relative stereo)			< 50		**** (a solubility less than or equal to 2 μM)
									Cc1ccc(-c2noc([C@H]3C[C@@H]3F)n2)cc1NC(=O)c1cnc2cc(NS(C)(=O)=O)ccn12	50 to 500	< 50	< 50	500 to 5000	** (a solubility greater than 10 μM and less than or equal to 50 μM)

MDCK-BCRP: Efflux Ratio [5]	MDCK-BCRP: Papp A-B [5]	IC50 [6] [nM]	IC50 [7] [nM]	IC50 [8] [nM]	Brain concentration [10] [ng/g]	Kp testes/plasma [10]	Plasma concentration [10] [ng/mL]	Testes concentration [10] [ng/g]	Compound	IC50 [1] [nM]	IC50 [2] [nM]	IC50 [3] [nM]	IC50 [4] [nM]	Solubility (μM) [9]
1.96	11.1 10^−6 cm/s								Cc1nc(-c2ccc(C)c(NC(=O)c3cnc4cc(C#N)ccn34)c2)no1		5000 to 30000	50 to 500	5000 to 30000	*** (a solubility greater than 2 μM and less than or equal to 10 μM)
									Cc1ccc(-c2noc(CCO)n2)cc1NC(=O)c1cnn2ccccc12	50 to 500	500 to 5000	< 50	5000 to 30000	** (a solubility greater than 10 μM and less than or equal to 50 μM)
									Cc1ccc(-c2noc(C3CC3F)n2)cc1NC(=O)c1cnc2cc(COCC(F)(F)F)ccn12 (stereo not drawn)	50 to 500	< 50	< 50	50 to 500	**** (a solubility less than or equal to 2 μM)
		< 50	500 to 5000	< 50					COc1ccn2c(C(=O)Nc3cc(-c4noc([C@H]5C[C@H](OCCF)C5)n4)ccc3C)cnc2c1					
1.04	8.32 10^−6 cm/s								Cc1ccc(-c2noc(C3CC3F)n2)cc1NC(=O)c1cnc2cc(Br)ccn12 (single isomer, unassigned)		< 50	< 50	50 to 500	**** (a solubility less than or equal to 2 μM)
									CCc1nc(-c2ccc(Cl)c(NC(=O)c3cnc4ccccn34)c2)no1	50 to 500	< 50	< 50	500 to 5000	**** (a solubility less than or equal to 2 μM)
3.69	7.81 10^−6 cm/s								Cc1ccc(-c2noc(C3CC4CC4N3)n2)cc1NC(=O)c1cnc2ccccn12 (stereo not drawn)			< 50		** (a solubility greater than 10 μM and less than or equal to 50 μM)
									CCc1nc(-c2ccc(Cl)c(NC(=O)c3cnn4ccccc34)c2)no1	< 50	50 to 500	< 50	500 to 5000	
									COCc1ccn2c(C(=O)Nc3cc(-c4noc(C5CC5F)n4)ccc3C)cnc2c1 (stereo not drawn)	< 50	< 50	< 50	50 to 500	**** (a solubility less than or equal to 2 μM)
									Cc1ccc(-c2noc(C3(C)CC3(F)F)n2)cc1NC(=O)c1cnc2ccccn12 (stereo not drawn)	< 50	50 to 500	< 50	500 to 5000	**** (a solubility less than or equal to 2 μM)
28.7	0.58 10^−6 cm/s								Cc1ccc(-c2noc(C3CC(F)(F)C3)n2)cc1NC(=O)c1cnc2cc(NS(C)(=O)=O)ccn12		< 50	< 50	< 50	** (a solubility greater than 10 μM and less than or equal to 50 μM)
									CNc1ccc2ncc(C(=O)Nc3cc(-c4noc(C)n4)ccc3C)n2c1	< 50	< 50	< 50	50 to 500	**** (a solubility less than or equal to 2 μM)
8.45	1.54 10^−6 cm/s	50 to 500							Cc1ccc(-c2noc([C@H]3C[C@@H]3F)n2)cc1NC(=O)c1cnc2cc(NS(=O)(=O)c3cccs3)ccn12			< 50		*** (a solubility greater than 2 μM and less than or equal to 10 μM)
28.5	1.26 10^−6 cm/s	< 50			0	0.21	127	27.1	Cc1ccc(-c2noc(CC(C)O)n2)cc1NC(=O)c1cnc2ccccn12 (single isomer, unassigned) [I-257]		50 to 500	< 50	500 to 5000	* (a solubility greater than 50 μM)
0.56	20.3 10^−6 cm/s								Cc1ccc(-c2noc(C(C)C)n2)cc1NC(=O)c1cnc2ccccn12		< 50	< 50	500 to 5000	*** (a solubility greater than 2 μM and less than or equal to 10 μM)
									Cc1ccc(-c2noc([C@H]3C[C@@H]3F)n2)cc1NC(=O)c1cnn2cc(C#N)ccc12	50 to 500	50 to 500	< 50	5000 to 30000	

Compound	MDCK-BCRP: Efflux Ratio [5]	MDCK-BCRP: Papp A-B [5]	IC50 [6] [nM]	IC50 [7] [nM]	IC50 [8] [nM]	Brain concentration [10] [ng/g]	Kp testes/plasma [10]	Plasma concentration [10] [ng/mL]	Testes concentration [10] [ng/g]	IC50 [1] [nM]	IC50 [2] [nM]	IC50 [3] [nM]	IC50 [4] [nM]	Solubility (μM) [9]
Cc1ccc(-c2noc([C@@H]3C[C@H]3C#N)n2)cc1NC(=O)c1cnc2ccccn12 (relative stereo)	2.66	7.77 10^−6 cm/s								< 50	< 50	< 50	< 50	
Cc1ccc(-c2noc(C3CC34CC4)n2)cc1NC(=O)c1cnc2ccccn12 (stereo not drawn)	0.94	12.4 10^−6 cm/s								< 50	< 50	< 50	500 to 5000	**** (a solubility less than or equal to 2 μM)
Cc1ccc(-c2noc([C@H]3C[C@@H]3F)n2)cc1NC(=O)c1cnc2cc(NS(=O)(=O)C3CC3)ccn12	27.5	0.56 10^−6 cm/s	< 50							< 50	< 50	< 50	50 to 500	** (a solubility greater than 10 μM and less than or equal to 50 μM)
